{
  "sequences": {"note": "Sequences of proteins named here, by UniProt entry; tags and fusion partners are left off.", "UniProt P14735, whole entry": "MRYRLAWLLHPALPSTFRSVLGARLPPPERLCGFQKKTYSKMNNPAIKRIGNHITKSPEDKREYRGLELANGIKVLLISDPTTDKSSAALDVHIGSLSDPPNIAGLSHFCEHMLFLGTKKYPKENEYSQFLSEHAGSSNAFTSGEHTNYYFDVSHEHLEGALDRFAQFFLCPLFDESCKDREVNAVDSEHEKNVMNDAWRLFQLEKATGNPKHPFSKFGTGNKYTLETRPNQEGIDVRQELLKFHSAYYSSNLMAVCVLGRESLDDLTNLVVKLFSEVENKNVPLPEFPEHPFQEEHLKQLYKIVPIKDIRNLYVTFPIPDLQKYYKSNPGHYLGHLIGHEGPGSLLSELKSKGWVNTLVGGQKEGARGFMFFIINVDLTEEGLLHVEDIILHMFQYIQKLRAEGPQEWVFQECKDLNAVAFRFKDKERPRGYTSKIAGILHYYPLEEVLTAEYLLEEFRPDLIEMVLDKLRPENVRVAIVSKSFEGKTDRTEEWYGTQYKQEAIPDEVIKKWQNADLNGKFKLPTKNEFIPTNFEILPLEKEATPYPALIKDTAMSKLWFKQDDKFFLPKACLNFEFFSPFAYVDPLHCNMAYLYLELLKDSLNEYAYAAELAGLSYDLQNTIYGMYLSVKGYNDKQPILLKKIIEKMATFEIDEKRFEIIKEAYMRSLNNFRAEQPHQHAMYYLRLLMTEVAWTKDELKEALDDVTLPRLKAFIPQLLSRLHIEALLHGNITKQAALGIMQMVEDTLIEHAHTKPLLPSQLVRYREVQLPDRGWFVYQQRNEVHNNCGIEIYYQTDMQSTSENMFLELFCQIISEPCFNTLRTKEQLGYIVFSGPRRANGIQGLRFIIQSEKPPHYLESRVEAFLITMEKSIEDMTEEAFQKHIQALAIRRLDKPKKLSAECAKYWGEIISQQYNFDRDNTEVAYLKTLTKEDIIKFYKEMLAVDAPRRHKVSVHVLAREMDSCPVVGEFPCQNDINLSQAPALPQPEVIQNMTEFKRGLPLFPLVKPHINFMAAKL"},
  "source": "PubChem BioAssay AID493087",
  "about": "(The Scripps Research Institute Molecular Screening Center, 2011)",
  "note": "The list shows a part of the results, in another mix than the full data. Calls of active or inactive are those of the source.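 How the source made its calls: active means activation above the mean of all tested compounds plus 3 SD, set per screening campaign (cut at about 17% in these data); inactive means the rest.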",
  "data": [
    {"biological_target": "Insulin-degrading enzyme (Homo sapiens) (UniProt P14735)", "experiment": "human IDE activators in live cells, primary screen, fluorescence polarization, HEK cells, FAbeta-B substrate (AID 493087)", "details": "FAbeta-B cleavage, at 5.96 µM, stronger effect = higher value, 0% vehicle, 100% cell-free pure enzyme wells", "values": [
      {"molecule": "COc1ccccc1OP(C)(=O)Nc1ccccc1", "note": "(stereo unspecified)", "activation": "inactive: 1.71%"}
    ]}
  ]
}
